From ChEMBL document CHEMBL1129970, “Biologically active conformer of the effector region of human C5a and modulatory effects of N-terminal receptor binding determinants on activity” (J Med Chem, 1997) come the findings set out here.

The species named for assay [1] is Homo sapiens. Briefly: Spasmogenic activity was measured by the ability to induce smooth muscle contraction in human fetal artery. Type of assay: functional, Muscle tissue. Summed up:
(§1)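 Human fetal artery smooth muscle contraction; full dose–response curves for recombinant human C5a or each peptide in the same tissue preparation. EC50 is the concentration giving 50% of the maximal response, read relative to the C5a maximum. pD2 = −log EC50 (M), averaged per peptide ± SE. Log potency ratio pD2(C5a) − pD2(peptide) is computed within each experiment. Relative potency = antilog(−Δ) × 100.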

The species named for assay [2] is Homo sapiens. Briefly: Relative potency of peptide to stimulate beta-glucuronidase release from human polymorphonuclear cells (PMN) (n=8). The format is functional.
The species named for assay [3] is Homo sapiens. Nature of the assay: Maximum efficacy relative to C5a (100%) for human polymorphonuclear cells (PMN) was determined (n=8). Type of assay: functional.
Assay [4] is filed under the species Homo sapiens. Briefly: Selectivity of peptide was determined from antilog[pD2(fetal artery)-pD2 (PMN enzyme release)] (n=34). The format is functional.
For assay [5], the species on record is Homo sapiens. Briefly: Relative affinity for PMN receptor (n=10). Type of assay: functional.
For assay [6], the species on record is Homo sapiens. Briefly: Log potency ratio [pD2(C5a)-pD2(peptide)] was determined in human fetal artery. Type of assay: functional. Summed up:
as §1

For assay [7], the species on record is Homo sapiens. Briefly: Tested for the ability to stimulate beta-glucuronidase release from human polymorphonuclear cells (PMN) (n=8). Type of assay: functional.
The species entered for assay [8] is Homo sapiens. Briefly: Log potency ratio [log IC50(C5a)-log IC50(peptide)] was determined in human polymorphonuclear cells (PMN) (n=10). Type of assay: functional.
The species entered for assay [9] is Homo sapiens. Nature of the assay: Log potency ratio [pD2(C5a)-pD2(peptide)] was determined in human polymorphonuclear cells (PMN) (n=8). The format is functional.
For assay [10], the species on record is Homo sapiens. Briefly: Relative potency of peptide for human fetal artery was determined. The format is functional. In outline:
as §1

The species named for assay [11] is Homo sapiens. Briefly: Ratio of concentration agonist potency (EC50) to concentration inhibiting [125I]-C5a binding (n=10). The format is functional.
The species entered for assay [12] is Homo sapiens. Nature of the assay: Tested for inhibition of binding of [125I]C5a to intact human polymorphonuclear cells (PMN) (n=10). The format is functional, organism-based.
The species named for assay [13] is Homo sapiens. Briefly: Effective concentration to induce smooth muscle contraction in human fetal artery. The settings on record: Muscle tissue. The format is functional. Summed up:
as §1

The species named for assay [14] is Homo sapiens. Nature of the assay: Effective concentration to stimulate beta-glucuronidase release from human polymorphonuclear cells (PMN) (n=8). Type of assay: functional, organism-based.

The term IC50 denotes the concentration that inhibits the measured activity by half. Low values mean greater potency, high ones weaker potency. By EC50 is commonly meant the concentration giving half of the maximal effect. Read a high EC50 as lower potency in that assay.

For the compound `CSCC[C@H](NC(=O)[C@@H]1CCCN1C(=O)[C@H](CCCCN)NC(=O)[C@H](Cc1ccccc1)NC(=O)[C@H](CO)NC(=O)[C@@H](N)Cc1ccc(O)cc1)C(=O)N1CCC[C@H]1C(=O)N[C@@H](CC(C)C)C(=O)N[C@H](C)C(=O)N[C@@H](CCCN=C(N)N)C(=O)O` [listing 1 of 2 here], the pD2 in the assay listed under Homo sapiens [1] amounted to 6.75; in the assay listed under Homo sapiens [7], 5.37. For the same compound, the Potency in the assay filed under Homo sapiens [2] turned out to be 0.9%; in the assay listed under Homo sapiens [10], 7.8%. In the assay filed under Homo sapiens [3], this compound yielded a C5a max of 216%. Moreover, the Selectivity in the assay listed under Homo sapiens [4] is 24. In addition, the C5a affinity in the assay filed under Homo sapiens [5] is listed as 0.014%. Besides, the “Mean log concentration ratio” value in the assay filed under Homo sapiens [6] came to 1.11; in the assay listed under Homo sapiens [8] it was 3.84; in the assay listed under Homo sapiens [9], 2.06. Also, the Ratio in the assay listed under Homo sapiens [11] is 0.7.

With `CSCC[C@H](NC(=O)[C@@H]1CCCN1C(=O)[C@H](CCCCN)NC(=O)[C@H](Cc1ccccc1)NC(=O)[C@H](CO)NC(=O)[C@@H](N)Cc1ccc(O)cc1)C(=O)N1CCC[C@H]1C(=O)N[C@@H](CC(C)C)C(=O)N[C@H](C)C(=O)N[C@@H](CCCN=C(N)N)C(=O)O` [listing 2 of 2 here], in the assay listed under Homo sapiens [12], the IC50 was determined as 6 µM. In addition, the EC50 in the assay filed under Homo sapiens [13] came out at 0.2 µM; in the assay listed under Homo sapiens [14], 4.1 µM.
